We go through two molecules from ChEMBL document CHEMBL4673207, “Recent advances in the discovery of potent and selective HDAC6 inhibitors” (Eur J Med Chem, 2018).

Assay [1] is filed under the species Homo sapiens. Put plainly: Selectivity ratio of IC50 for human HDAC8 to IC50 for human HDAC6.
For assay [2], the species on record is Homo sapiens. Put plainly: Selectivity ratio of IC50 for human HDAC2 to IC50 for human HDAC6.
For assay [3], the species on record is Homo sapiens. As to the kind of experiment: Selectivity ratio of IC50 for human HDAC1 to IC50 for human HDAC6.
The species named for assay [4] is Homo sapiens. Put plainly: Selectivity ratio of IC50 for human HDAC4 to IC50 for human HDAC6.
The species entered for assay [5] is Homo sapiens. Put plainly: Selectivity ratio of IC50 for human HDAC11 to IC50 for human HDAC6.

Where only a bound is given, the exact number is not on record here.

Regarding `O=C(NO)c1ccc(Cn2c(=O)c(F)cn(C3CCCO3)c2=O)cc1` (stereo unspecified), the Ratio IC50 in the assay listed under Homo sapiens [1] turned out to be 12; in the assay listed under Homo sapiens [2] it was 443; in the assay filed under Homo sapiens [3], 137.
With `CN(C)c1ccc(C(=O)N(CC(=O)NC2CCCCC2)Cc2ccc(C(=O)NO)cc2)cc1`, the figures for the Ratio IC50 in the assay filed under Homo sapiens [4], in the assay filed under Homo sapiens [5] and in the assay filed under Homo sapiens [2] were over 6290, 40 and 126, respectively.
